ChEMBL document CHEMBL1129630, “Synthesis and structure-activity relationships of retinoid X receptor selective diaryl sulfide analogs of retinoic acid” (J Med Chem, 1996)

Protein sequences, listed by entry. Tags and fused reporters are not part of them.
UniProt P18911, whole entry: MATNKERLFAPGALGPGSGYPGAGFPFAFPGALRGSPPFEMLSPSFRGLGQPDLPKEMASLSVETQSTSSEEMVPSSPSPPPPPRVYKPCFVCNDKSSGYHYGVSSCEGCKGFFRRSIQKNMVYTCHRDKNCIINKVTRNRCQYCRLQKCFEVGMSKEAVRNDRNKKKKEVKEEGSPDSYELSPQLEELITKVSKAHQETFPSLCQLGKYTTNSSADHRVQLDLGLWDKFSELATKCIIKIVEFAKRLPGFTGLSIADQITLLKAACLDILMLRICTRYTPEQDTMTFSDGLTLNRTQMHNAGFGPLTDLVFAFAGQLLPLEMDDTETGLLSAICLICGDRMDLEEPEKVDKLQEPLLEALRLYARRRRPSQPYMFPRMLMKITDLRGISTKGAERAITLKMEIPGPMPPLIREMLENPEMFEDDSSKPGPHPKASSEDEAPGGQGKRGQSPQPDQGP

Legend:
[1] = molecular target: T1, Retinoic acid receptor RXR-beta (Homo sapiens, UniProt P28702); experiment: Transcriptional activation of Retinoid X receptor RXR beta; parameters: species or system Cercopithecidae
T1 sequence (P28702 whole entry): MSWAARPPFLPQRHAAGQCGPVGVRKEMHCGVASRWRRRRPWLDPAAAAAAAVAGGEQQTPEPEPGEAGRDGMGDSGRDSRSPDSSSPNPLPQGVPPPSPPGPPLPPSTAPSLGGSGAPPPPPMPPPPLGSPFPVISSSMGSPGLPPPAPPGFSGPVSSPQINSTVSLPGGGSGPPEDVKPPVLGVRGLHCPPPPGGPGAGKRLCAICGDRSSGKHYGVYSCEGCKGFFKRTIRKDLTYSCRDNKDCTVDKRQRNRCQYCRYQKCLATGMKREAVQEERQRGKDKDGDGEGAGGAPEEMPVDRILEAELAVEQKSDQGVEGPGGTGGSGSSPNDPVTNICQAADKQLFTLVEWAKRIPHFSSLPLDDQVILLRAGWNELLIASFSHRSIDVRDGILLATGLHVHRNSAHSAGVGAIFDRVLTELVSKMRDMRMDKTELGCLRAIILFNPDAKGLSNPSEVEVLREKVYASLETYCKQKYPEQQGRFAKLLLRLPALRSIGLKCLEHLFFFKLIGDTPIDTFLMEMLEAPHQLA

[2] = molecular target: Retinoic acid receptor gamma (Mus musculus, UniProt P18911); experiment: Dissociation constant for binding to Retinoic acid receptor gamma
Outline: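 Competitive binding assays against each receptor subtype, with Kd values taken from competition.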

EC50 [1] [nM]	Kd [2] [nM]	Structure (SMILES)
1600	–	CC1(C)CCC(C)(C)c2cc(Sc3ccc(C(=O)O)cc3)ccc21
–	17	CC1=C(/C=C/C(C)=C\C=C\C(C)=C\C(=O)O)C(C)(C)CCC1 [ALITRETINOIN]
–	18	CC1=C(/C=C/C(C)=C/C=C/C(C)=C/C(=O)O)C(C)(C)CCC1 [TRETINOIN]
